A short description of this experiment: Selectivity ratio of IC50 for human DHFR to IC50 for Toxoplasma gondii DHFR.

One compound from ChEMBL document CHEMBL3865850, “Discovery of Potent and Selective Leads against Toxoplasma gondii Dihydrofolate Reductase via Structure-Based Design” (ACS Med Chem Lett, 2016) can be followed below.

Structures are written as SMILES.

As for `Nc1ncc(N2CCN(c3cccc(-c4ccccc4)c3)CC2)c(N)n1`, the Ratio IC50 turned out to be 89.
